# Laboratory results reported in US20240150691A1, “BILE DUCT CHIP AND USE THEREOF” (Kyoto University, priority 2021, published 2024).
# B1: DLL1: recombinant human Delta Like Canonical Notch Ligand 1, lumenization factor (protein, UniProt O00548 18-723, looked up)
# Delta-like protein 1: QVWSSGVFELKLQEFVNKKGLLGNRNCCRGGAGPPPCACRTFFRVCLKHYQASVSPEPPCTYGSAVTPVLGVDSFSLPDGGGADSAFSNPIRFPFGFTWPGTFSLIIEALHTDSPDDLATENPERLISRLATQRHLTVGEEWSQDLHSSGRTDLKYSYRFVCDEHYYGEGCSVFCRPRDDAFGHFTCGERGEKVCNPGWKGPYCTEPICLPGCDEQHGFCDKPGECKCRVGWQGRYCDECIRYPGCLHGTCQQPWQCNCQEGWGGLFCNQDLNYCTHHKPCKNGATCTNTGQGSYTCSCRPGYTGATCELGIDECDPSPCKNGGSCTDLENSYSCTCPPGFYGKICELSAMTCADGPCFNGGRCSDSPDGGYSCRCPVGYSGFNCEKKIDYCSSSPCSNGAKCVDLGDAYLCRCQAGFSGRHCDDNVDDCASSPCANGGTCRDGVNDFSCTCPPGYTGRNCSAPVSRCEHAPCHNGATCHERGHRYVCECARGYGGPNCQFLLPELPPGPAVVDLTEKLEGQGGPFPWVAVCAGVILVLMLLLGCAAVVVCVRLRLQKHRPPADPCRGETETMNNLANCQREKDISVSIIGATQIKNTNKKADFHGDHSADKNGFKARYPAVDYNLVQDLKGDDTAVRDAHSKRDTKCQPQGSSGEEKGTPTTLRGGEASERKRPDSGCSTSKDTKYQSVYVISEEKDECVIATEV
# Test system: GFP-expressing HuCCT1 cells
# Assay: Formation of tubular bile duct-like structure in microfluidic device
# Type: cell-based, human
# Settings: 10 ng/mL in culture medium, 4 days, lower layer flow path
# Method: GFP-expressing HuCCT1 cells were seeded in the lower layer flow path of the microfluidic device in the presence or absence of 10 ng/mL of DLL1 or DLL4, and after 4 days, a cross-sectional image of the microfluidic device was acquired.
# In FIG. 18, each arrow indicates a region in which the GFP-expressing HuCCT1 cells are not present, and “Control” indicates the results in the absence of DLL1 and DLL4.
molecule,measurement,value
B1,formation of the tubular bile duct-like structure,accelerates the formation of the tubular bile duct-like structure
